Each block holds one molecule with its values, some of them ahead of it.
Key:
[1] = target: phosphorylated p-38-alpha kinase (Homo sapiens, UniProt Q16539); assay: P-38 alpha kinase assay P1; type: biochemical; details: Method P1; 2 h pre-incubation before ATP
[2] = target: T1, B-Raf(V599E) kinase (Homo sapiens, UniProt P15056, V600E); assay: B-Raf(V599E) kinase assay B1; type: biochemical; details: Method B1; construct 1
Procedure: (§1) The test compounds were incubated with the reaction mixture at 30° C. for 2 h. […] The reaction rate was calculated using the 1.5 h to 2.5 h time frame. […] IC50 values were calculated from a series of percent inhibition values determined at a range of inhibitor concentrations using software routines as implemented in the GraphPad Prism software package.

Protein sequences, listed by entry. Tags and fused reporters are not part of them. Chains listed by the source or under a name are the forms on record and can include a tag or linker. Residues count along the entry.
UniProt Q16539, 1-360 isoform Q16539-2: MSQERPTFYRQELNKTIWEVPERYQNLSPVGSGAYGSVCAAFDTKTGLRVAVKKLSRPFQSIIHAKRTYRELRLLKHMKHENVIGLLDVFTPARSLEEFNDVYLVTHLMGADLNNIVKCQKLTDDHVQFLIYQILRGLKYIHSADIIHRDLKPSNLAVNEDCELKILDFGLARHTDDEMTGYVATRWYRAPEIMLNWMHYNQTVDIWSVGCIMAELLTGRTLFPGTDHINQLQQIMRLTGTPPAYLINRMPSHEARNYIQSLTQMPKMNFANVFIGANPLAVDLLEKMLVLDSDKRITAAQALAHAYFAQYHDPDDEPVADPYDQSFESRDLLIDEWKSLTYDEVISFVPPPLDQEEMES
UniProt Q16539, whole entry: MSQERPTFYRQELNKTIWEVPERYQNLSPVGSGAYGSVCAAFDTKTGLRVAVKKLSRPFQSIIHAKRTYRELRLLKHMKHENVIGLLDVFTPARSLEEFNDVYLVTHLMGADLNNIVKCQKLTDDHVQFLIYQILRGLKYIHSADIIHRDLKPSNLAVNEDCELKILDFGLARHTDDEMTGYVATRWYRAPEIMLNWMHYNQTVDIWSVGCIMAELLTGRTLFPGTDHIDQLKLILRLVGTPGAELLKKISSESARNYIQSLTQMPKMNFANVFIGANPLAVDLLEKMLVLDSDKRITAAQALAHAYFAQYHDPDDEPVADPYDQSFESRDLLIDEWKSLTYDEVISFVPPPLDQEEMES
UniProt P15056, with tags, fused parts or gaps V600E: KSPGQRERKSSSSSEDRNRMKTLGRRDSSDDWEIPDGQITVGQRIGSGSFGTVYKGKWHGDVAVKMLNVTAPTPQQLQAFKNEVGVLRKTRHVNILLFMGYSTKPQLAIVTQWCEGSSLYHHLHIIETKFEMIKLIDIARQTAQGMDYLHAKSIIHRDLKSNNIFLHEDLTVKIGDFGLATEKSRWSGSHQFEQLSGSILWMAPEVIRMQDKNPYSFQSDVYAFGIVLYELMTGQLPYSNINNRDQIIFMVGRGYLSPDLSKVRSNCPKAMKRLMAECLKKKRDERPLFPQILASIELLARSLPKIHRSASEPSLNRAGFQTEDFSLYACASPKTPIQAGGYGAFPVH
UniProt P15056, 433-726 V600E: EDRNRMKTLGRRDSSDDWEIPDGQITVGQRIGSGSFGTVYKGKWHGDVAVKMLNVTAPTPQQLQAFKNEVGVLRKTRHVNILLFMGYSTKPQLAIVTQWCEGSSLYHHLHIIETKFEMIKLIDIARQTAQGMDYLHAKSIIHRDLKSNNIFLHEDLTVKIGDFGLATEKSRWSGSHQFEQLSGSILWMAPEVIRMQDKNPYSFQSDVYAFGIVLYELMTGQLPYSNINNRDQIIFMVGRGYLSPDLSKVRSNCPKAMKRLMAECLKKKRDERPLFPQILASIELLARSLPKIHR
UniProt P35968, with tags, fused parts or gaps DEL940-989/E990V: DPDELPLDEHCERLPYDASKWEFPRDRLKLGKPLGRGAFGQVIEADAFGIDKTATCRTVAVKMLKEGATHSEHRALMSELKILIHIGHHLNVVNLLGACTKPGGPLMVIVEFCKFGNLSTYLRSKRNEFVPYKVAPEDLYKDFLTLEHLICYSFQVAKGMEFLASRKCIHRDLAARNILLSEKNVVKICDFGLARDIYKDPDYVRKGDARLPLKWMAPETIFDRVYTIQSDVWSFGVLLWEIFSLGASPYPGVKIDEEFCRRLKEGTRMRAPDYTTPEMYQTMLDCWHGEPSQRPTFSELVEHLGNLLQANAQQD

[3] = target: T2, KDR kinase (Homo sapiens, UniProt P35968, DEL940-989/E990V); assay: KDR kinase assay K2
[4] = target: T3, phospho p-38 alpha kinase (Homo sapiens, UniProt Q16539); assay: P-38 alpha kinase assay (spectrophotometric, pyruvate kinase/lactate dehydrogenase coupled); type: biochemical; details: for IC50: Table 5, assay not named
T3 construct: purchased Panvera
Procedure: In this assay, the oxidation of NADH was continuously measured spectrophometrically. […] The reaction was initiated by adding ATP. The absorption at 340 nm was monitored continuously for up to 4 hours at 30° C. on Polarstar Optima plate reader (BMG). The kinase activity (reaction rate) was calculated from the slope at the time frame from 1.5 h to 2 h.
For inhibition determinations, test compounds were incubated with the reaction mixture for ˜5 min before adding ATP to start the reaction. […] IC50 values were calculated from a series of % inhibition values determined at a range of concentrations of each inhibitor using Prism to process the data and fit inhibition curves. Generally, the rates obtained at the time frame of 1.5 h to 2 h were used for these calculations.

[5] = target: T2, KDR kinase; assay: KDR kinase assay K1; type: biochemical
Procedure: IC50 values were calculated from a series of percent inhibition values determined at a range of inhibitor concentrations using software routines as implemented in the GraphPad Prism software package.

[6] = target: T1, B-Raf(V599E) kinase; assay: biochemical
Procedure: as §1
Same as assay B1 except that (1) construct 2 was employed at a nominal concentration of 2 nM (2) the reaction was pre-incubated at 30° C. for 1 h prior to initiation with ATP (3) a reading time frame of 0.5 h to 1.5 h.

Structure (SMILES): CN(C)[C@H]1CCN(C(=O)Cc2cccc(-n3nc(C(C)(C)C)cc3NC(=O)Nc3cccc(Cl)c3Cl)c2)C1 [Example 465, 1-(3-tert-butyl-1-(3-(2-((S)-3-(dimethylamino)pyrrolidin-1-yl)-2-oxoethyl)phenyl)-1H-pyrazol-5-yl)-3-(2,3-dichlorophenyl)urea]
IC50 [1]: 0.013 µM | IC50 [2]: 0.011 µM

Structure (SMILES): CC(C)(C)c1cc(NC(=O)Nc2cccc(F)c2F)n(-c2cccc(CC(N)=O)c2)n1 [Example 495, 1-(1-(3-(2-amino-2-oxoethyl)phenyl)-3-tert-butyl-1H-pyrazol-5-yl)-3-(2,3-difluorophenyl)urea]
IC50 [3]: 2700 nM

IC50 [4]: 0.12 µM
Structure (SMILES): CC(C)(C)c1cc(NC(=O)Nc2cccc(Cl)c2Cl)n(-c2cccc(CC(N)=O)c2)n1 [Example 308, 1-{1-[3-(2-amino-2-oxoethyl)phenyl]-3-t-butyl-1H-pyrazol-5-yl}-3-(2,3-dichlorophenyl)urea]

Structure (SMILES): CN(C)[C@@H]1CCN(C(=O)Cc2cccc(-n3nc(C(C)(C)C)cc3NC(=O)Nc3cccc(Cl)c3Cl)c2)C1 [Example 464, 1-(3-tert-butyl-1-(3-(2-((R)-3-(dimethylamino)pyrrolidin-1-yl)-2-oxoethyl)phenyl)-1H-pyrazol-5-yl)-3-(2,3-dichlorophenyl)urea]
IC50 [4]: 0.019 µM | IC50 [1]: 0.011 µM | IC50 [2]: 0.043 µM

IC50 [4]: 0.013 µM
Structure (SMILES): CC(C)(C)c1cc(NC(=O)Nc2cccc3ccccc23)n(-c2ccc(C=O)cc2)n1 [Example 359, 1-[3-t-butyl-1-(4-formylphenyl)-1H-pyrazol-5-yl]-3-(naphthalen-1-yl)urea]

Structure (SMILES): CC(C)(C)c1cc(NC(=O)Nc2cccc(Cl)c2Cl)n(-c2ccc(CC(=O)N3CCCC(C(=O)O)C3)cc2)n1 (centres unmarked) [Example 476, 1-(2-(4-(3-tert-butyl-5-(3-(2,3-dichlorophenyl)ureido)-1H-pyrazol-1-yl)phenyl)acetyl)piperidine-3-carboxylic acid]
IC50 [5]: 1100 nM

Structure (SMILES): CC(C)(C)c1cc(NC(=O)Nc2ccccc2F)n(-c2cccc(CO)c2)n1 [Example 200, 1-{3-t-butyl-1-[3-(hydroxymethyl)phenyl]-1H-pyrazol-5-yl}-3-(2-fluorophenyl)urea]
inhibition at 1 µM ([4]; read-out: % Inhibition @ concentration, uM): 73%

Structure (SMILES): Cn1c(=O)c(-c2cccc(NC(=O)Nc3cc(C4CCCC4)nn3-c3cccc(CC(N)=O)c3)c2)cc2cncnc21 [Example 514, 1-(1-(3-(2-amino-2-oxoethyl)phenyl)-3-cyclopentyl-1H-pyrazol-5-yl)-3-(3-(8-methyl-7-oxo-7,8-dihydropyrido[2,3-d]pyrimidin-6-yl)phenyl)urea]
IC50 [6]: 36 nM
